Values quoted from earlier work, collected in US20240425630A1, “POLYMER DISPERSION COMPOSITION” (Dow Global Technologies LLC, priority 2021, published 2024).

Details: literature data (footnotes of Table II); cited from earlier work

Substance	pKaH
Glycolic acid ethoxylate oleyl ether	3.68
Glycolic acid ethoxylate lauryl ether	4.0
